Earlier results on one sequence are cited in patent US20070207952A1, “Long Acting Biologically Active Conjugates” (priority 2003, published 2007).

Amino acid sequences for entries named in this document (tags omitted). Residues count along the entry.
UniProt P00797, 67-406: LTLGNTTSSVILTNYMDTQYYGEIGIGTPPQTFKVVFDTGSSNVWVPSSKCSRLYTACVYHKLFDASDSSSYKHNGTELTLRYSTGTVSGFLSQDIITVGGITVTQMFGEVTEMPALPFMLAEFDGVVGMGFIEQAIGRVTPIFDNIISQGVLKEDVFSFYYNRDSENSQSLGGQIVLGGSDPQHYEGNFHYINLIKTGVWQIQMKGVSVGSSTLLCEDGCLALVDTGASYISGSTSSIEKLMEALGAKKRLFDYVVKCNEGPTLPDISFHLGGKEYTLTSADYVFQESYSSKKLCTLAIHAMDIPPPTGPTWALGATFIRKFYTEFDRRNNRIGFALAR

The data set has as its target T1, Human plasma renin (Homo sapiens, UniProt P00797).
T1 construct: plasma renin
To be noted: literature values; cited from earlier work.

What is called IC50 is the concentration needed to halve the response being measured. For PHPFHFFVYK, the 50% inhibitory concentration (IC50) was 5200 nM.
